Test results as given in ChEMBL document CHEMBL1833926, “Bicyclic heteroaryl inhibitors of stearoyl-CoA desaturase: from systemic to liver-targeting inhibitors” (Bioorg Med Chem Lett, 2011).

Target: T1, Stearoyl-CoA desaturase (Homo sapiens, UniProt O00767)
T1 sequence (O00767 whole entry): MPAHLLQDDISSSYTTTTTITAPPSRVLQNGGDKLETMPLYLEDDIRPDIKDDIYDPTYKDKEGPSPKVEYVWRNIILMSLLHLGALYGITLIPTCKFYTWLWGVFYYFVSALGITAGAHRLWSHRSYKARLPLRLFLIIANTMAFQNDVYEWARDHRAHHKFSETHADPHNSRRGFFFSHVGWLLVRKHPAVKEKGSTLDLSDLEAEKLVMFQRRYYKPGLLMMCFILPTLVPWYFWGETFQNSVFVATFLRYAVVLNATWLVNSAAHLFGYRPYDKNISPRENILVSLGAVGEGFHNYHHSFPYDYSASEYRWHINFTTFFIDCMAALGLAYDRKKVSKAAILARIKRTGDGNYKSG
Assay: Inhibition of SCD1 in human HepG2 cells
Type: cell-based

Nc1ncnc2[nH]c(N3CCC(Oc4ccccc4C(F)(F)F)CC3)nc12
pIC50: 6.79

pIC50: −log10 of the molar value.
